The values below come from patent US20250346630A1, “Engineering Peptides Using Peptide Epitope Linker Evolution” (AGENCY FOR SCIENCE, TECHNOLOGY AND RESEARCH, priority 2022, published 2025).

By UniProt entry, the sequences of proteins in these tests, tags left out.
UniProt P06730, whole entry: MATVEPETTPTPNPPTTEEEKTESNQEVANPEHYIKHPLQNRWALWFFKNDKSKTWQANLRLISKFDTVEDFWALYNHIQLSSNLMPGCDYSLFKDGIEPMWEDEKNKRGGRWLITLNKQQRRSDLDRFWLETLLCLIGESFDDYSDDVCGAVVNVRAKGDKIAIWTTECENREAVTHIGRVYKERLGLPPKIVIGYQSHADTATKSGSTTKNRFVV

The target in the assay is T1, LgBiT-eIF4E:SmBiT-VH-DIF^CAP-01 interaction (eIF4E cap-binding site) (Homo sapiens, UniProt P06730).
T1 construct: expressed in transfected cells; host or cells: HEK293
Put plainly: NanoBIT^CAP complementation assay in HEK293 cells. It counts as cell-based. The conditions noted are these: live HEK293 cells.

B1: VH-DIF^CAP-01 E103A: VH-DiF^CAP-01 with point mutation E103A, binding control (antibody, V domains shown)
VH: MSEVQLVESGGGLVQPGGSLRLSSAISGFSISSTSIDWVRQAPGKGLEWVARISPSSGSTSYADSVKGRFTISADTSKNTVYLQMNSLRAEDTAVYYTGRPLPAMGFFTNIPAMVDYRGQGTLVTVSSGAA
Regarding B1, the “luciferase signal of SmBiT-fused construct co-transfected with LgBiT-eIF4E” value is on record as “abrogation of the luciferase signal above background”.
